Target: T1, USP5 ZnF-UBD (USP5 171-290) (Homo sapiens, UniProt P45974)
T1 sequence (P45974 171-290): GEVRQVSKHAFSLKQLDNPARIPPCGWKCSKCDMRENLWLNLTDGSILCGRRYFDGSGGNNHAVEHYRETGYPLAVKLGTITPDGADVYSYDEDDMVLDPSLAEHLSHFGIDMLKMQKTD
Settings: FITC-ubiquitin displacement, N=1; 100 µM; inhibitor

- % inhibition: 73%
SMILES: O=C(O)CCC(=O)c1ccc(S(=O)(=O)N2CCC(c3ccc(F)c(F)c3)CC2)cc1 [compound 1, 1]

From doi:10.1101/2021.05.17.444542v1, “Structure Activity Relationship of USP5 Allosteric Inhibitors” (biorxiv, 2021)
